Measured affinities in a library of Ab-14 heavy chain variants

Binding partner: SARS-CoV-2 spike HR2 peptide, sequence PDVDLGDISGINAS.

Ab-14 is the parent antibody, in scFv form: VH, then a (GGGGS)3 linker, then VL. The light chain is unchanged in all variants.
VH: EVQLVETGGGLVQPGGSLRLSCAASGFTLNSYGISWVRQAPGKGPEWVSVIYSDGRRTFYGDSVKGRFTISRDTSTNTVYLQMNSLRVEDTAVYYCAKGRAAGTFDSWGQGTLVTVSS
VL: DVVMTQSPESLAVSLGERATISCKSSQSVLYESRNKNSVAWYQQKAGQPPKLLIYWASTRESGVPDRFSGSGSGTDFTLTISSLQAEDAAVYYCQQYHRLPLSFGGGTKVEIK

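The parent was found by panning a naive human phage display library on the peptide. The variants were designed computationally from a first round of random CDR variants and then made and measured. Group labels follow the data file (Ctrl: baseline library sampled from a position-specific scoring matrix, with some repeated check sequences; Rand: our label for a block that the file lists under HC and that is probably the random mutants of the ten best first-round binders; GP: Gaussian process model; GPLM: also part of the Gaussian process libraries; HC: hill climbing; Gen: genetic algorithm; Gibbs: Gibbs sampling; a sequence that several methods proposed may carry one label only). In AlphaSeq, yeast of one mating type display the scFv and yeast of the other type display the target. The frequency of each diploid, read from paired DNA barcodes, reflects how well the two displayed proteins bind. Read counts were normalised to the haploid input and turned into Kd by a linear fit to BCL2-family pairs of known affinity, for each replicate. There are six technical replicates.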

Substitutions are numbered in sequence along the VH above, starting at 1 (not Kabat).
Variants here have at most six changes.
Numbers give log10(Kd / nM), so 0 is 1 nM and 3 is 1 µM. Smaller is tighter.
The mean shown is taken over the replicates in which the pair was detected.
An entry "nd" has no value in the source: the pair was not observed among the diploids in that replicate. This suggests poor binding but is not conclusive.
A sequence measured in both rounds can read differently, since the two assays cover different ranges.

The variant T28D+Y32F+G61L+R100Q+A101V [GP_HC] gave 0.55, 0.07, 0.18, 0.27, -0.10, 0.40 (mean 0.23; controls 0 of 18).
The variant T28D+G61S+R100S+A102G [GPLM_HC] gave nd, nd, nd, nd, nd, nd (controls 0 of 18).
The variant G61S+R100Q+A101D [GP_HC] gave 0.59, 1.40, nd, 0.90, 1.83, 1.42 (mean 1.23; controls 0 of 18).
The variant T28E+G61A+R100W+A101T [GPLM_Gibbs] gave 0.57, 0.47, 0.18, -0.53, 0.29, 0.35 (mean 0.22; controls 0 of 18).
The variant S35T [Ctrl] gave nd, nd, nd, nd, nd, nd (controls 0 of 18).
The variant T28H+I51D+R56L+G61S+T104R+D106Y [Ctrl] gave nd, nd, nd, nd, nd, nd (controls 0 of 18).
The variant T28D+R57D [Ctrl] gave nd, nd, 2.91, nd, nd, nd (controls 1 of 18).
The variant F27D+R100H+A101I+G103L+S107D [Ctrl] gave nd, nd, nd, nd, nd, nd (controls 0 of 18).
The variant T28H+S31E+R100K+A101T+S107W [GP_Gibbs] gave nd, 0.74, 0.32, 0.31, nd, nd (mean 0.46; controls 0 of 18).
The variant T28S+S31D+G61A+R100N [GPLM_Gen] gave -0.02, 0.23, -0.05, 0.03, -0.10, -0.05 (mean 0.01; controls 1 of 18).
The variant T28S+S31N+A101T [GPLM_Gen] gave 0.38, 0.24, 0.44, 0.19, 0.24, 0.60 (mean 0.35; controls 0 of 18).
The variant G26H+N30D+F105D+D106L [Rand] gave nd, nd, nd, nd, nd, nd (controls 0 of 18).
The variant F27I+G61K+F105P [Ctrl] gave nd, nd, nd, nd, nd, nd (controls 1 of 18).
The variant L29Q+S31D+F59Q+G61I+D62Q [Rand] gave nd, nd, nd, nd, nd, nd (controls 0 of 18).
The variant N30D+S107W [Ctrl] gave nd, 1.97, 2.03, nd, nd, nd (mean 2.00; controls 0 of 18).
The variant N30L+R56H+G61S+G99D+R100S+A102M [Ctrl] gave 0.35, nd, 1.50, nd, nd, nd (mean 0.93; controls 0 of 18).
The variant N30E+S53A+R100S [Ctrl+GPLM_Gen] gave 0.04, 0.08, 0.24, -0.16, 0.10, 0.45; 0.38, 0.72, 0.72, 0.40, 0.46, 0.52 (mean 0.33; controls 0 of 36).
The variant T28D+G61L+R100Q+A101E [GP_HC] gave nd, -0.02, nd, 0.11, 0.90, nd (mean 0.33; controls 0 of 18).
The variant T28Q+G61S+S63Q+R100K [GP_Gibbs] gave 1.22, 0.96, 0.73, 1.17, 1.43, 1.43 (mean 1.16; controls 0 of 18).
The variant T28D+S63R+A101F [Ctrl] gave 1.73, 1.14, 1.51, 0.94, 0.47, 1.43 (mean 1.20; controls 0 of 18).
The variant G26L+T28S+S31E+A101T [GPLM_Gen] gave 1.79, 1.20, 0.53, 0.95, 1.15, 1.49 (mean 1.18; controls 1 of 18).
The variant T28G+S31E+G61H+S63D+A101T [GP_HC] gave 0.04, -0.19, -0.11, -0.24, -0.09, 0.04 (mean -0.09; controls 3 of 18).
The variant S31Q+Y52F+Y60N+G61S+T104F [Rand] gave nd, nd, nd, nd, nd, nd (controls 1 of 18).
The variant L29P+S53A+D106E [Ctrl] gave nd, nd, nd, nd, nd, nd (controls 1 of 18).
The variant T28D+G103D+T104I [GPLM_HC] gave nd, nd, nd, nd, nd, nd (controls 2 of 18).
The variant G26K+S31E+G61M+A101F [GP_HC] gave nd, nd, nd, nd, nd, nd (controls 0 of 18).
The variant G26M+T28D+S31T+R100E+S107K [GP_Gibbs] gave nd, 2.49, nd, nd, 1.09, nd (mean 1.79; controls 0 of 18).
The variant F27T+T28N+L29M+G61L [Ctrl] gave nd, nd, nd, nd, nd, nd (controls 0 of 18).
The variant G26K+T28S+S53A+R100K [GP_Gen] gave 0.37, 0.12, 0.06, -0.08, 0.23, 0.54 (mean 0.21; controls 0 of 18).
The variant S31E+G33D+G61T+R100N+A101F+A102I [Rand] gave nd, nd, nd, nd, nd, nd (controls 0 of 18).
The variant L29M+S31D+S35N+F59Q+G61I [Rand] gave nd, nd, 2.46, nd, nd, nd (controls 0 of 18).

The first 4 entries again:

changes	group	log10 Kd (nM) by replicate	mean log10 Kd (nM)	empty controls
T28D+Y32F+G61L+R100Q+A101V	GP_HC	0.55, 0.07, 0.18, 0.27, -0.10, 0.40	0.23	0/18
T28D+G61S+R100S+A102G	GPLM_HC	nd, nd, nd, nd, nd, nd	nd	0/18
G61S+R100Q+A101D	GP_HC	0.59, 1.40, nd, 0.90, 1.83, 1.42	1.23	0/18
T28E+G61A+R100W+A101T	GPLM_Gibbs	0.57, 0.47, 0.18, -0.53, 0.29, 0.35	0.22	0/18

The parent sequence was in this pool as ten entries: three were never detected, three once, and four in most replicates, with averages from 0.34 to 2.37.
Some sequences occur more than once in the pool; their replicates are listed entry by entry, parted by semicolons.
Three control strains display no target. For all heavy chain designs, 1% of the pairings with them gave a signal, with a median of 2.08 and one signal in twenty below 0.84, so weak values seen in few replicates may be background. For each scFv, signals with the empty controls are counted beside the result.
The authors' rule: three or more of the six replicates give a measured affinity, fewer mean a poor binder.

Data: MIT Lincoln Laboratory AlphaSeq set, Li et al. 2023, doi:10.1038/s41467-023-39022-2, as distributed in FLAb.